## Apparent affinities of Ab-14 variants for a coronavirus HR2 peptide

Source: Li et al. 2023 (doi:10.1038/s41467-023-39022-2), MIT Lincoln Laboratory and A-Alpha Bio; data file from the FLAb repository.

All variants were tested on one target, the spike HR2 peptide PDVDLGDISGINAS (SARS-CoV-2).

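Phage display of a naive human antibody library on the peptide gave the parent. Designed CDR sequences, proposed from the first random library and measured here. Their group label is 14H_GPLM_Gen (GPLM: also part of the Gaussian process libraries; Gen: genetic algorithm; a sequence that several methods proposed may carry one label only). The assay is AlphaSeq: two haploid yeast populations carry antibody and antigen on their surface. After mating in shaken culture at 30 °C for 16 h, diploids were selected and their barcode pairs sequenced. Each replicate has its own calibration line, from reference interactions of the BCL2 family. The assay was run in six technical replicates.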

The variants keep the light chain, the linker and the frameworks of Ab-14 (scFv order VH, three GGGGS repeats, VL).
VH: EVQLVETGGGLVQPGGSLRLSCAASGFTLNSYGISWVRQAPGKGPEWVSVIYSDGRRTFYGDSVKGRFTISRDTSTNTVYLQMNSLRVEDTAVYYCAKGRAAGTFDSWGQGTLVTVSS
VL: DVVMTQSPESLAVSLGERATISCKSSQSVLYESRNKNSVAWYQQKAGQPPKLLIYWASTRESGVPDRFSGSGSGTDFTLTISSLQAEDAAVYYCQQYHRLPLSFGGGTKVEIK

Sequences are complete VH domains. The read-out is the apparent dissociation constant on a log10 scale (nM): the lower, the stronger. Averages over replicates are reported, and they cover detected replicates only. "nd" marks a missing value. The strain was present, yet no cells mated with the target were sequenced in that replicate, which points to weak or no binding. The range of this assay differs from that of the first round, and the authors advise against merging the two. Of ten entries with the parent sequence, four were seen in most replicates (averages 0.34 to 2.37), three in one and three in none, so single entries are noisy. Background: pairings of all heavy chain designs with three empty control strains gave a value in 1% of cases (median 2.08, 5th percentile 0.84). Values in that range, when seen in few replicates, are hard to tell from nonspecific mating. For each scFv, signals with the empty controls are counted beside the result. In the paper, a design with two or fewer of six values counts as a poor binder.

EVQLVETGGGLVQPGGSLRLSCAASGFTLNSYGISWVRQAPGKGPEWVSVIYSDGRRTFYADSVKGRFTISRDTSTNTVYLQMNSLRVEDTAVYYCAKGRAAGTFDTWGQGTLVTVSS: 1.05, 1.12, 1.94, 0.74, 0.88, 1.34 (mean 1.18; controls 0 of 18).
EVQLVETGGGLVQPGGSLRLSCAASHFSLNNYGISWVRQAPGKGPEWVSVIYSDGRRTFYGDSVKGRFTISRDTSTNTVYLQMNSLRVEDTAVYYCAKGRTAGTFDSWGQGTLVTVSS: 1.43, 1.61, 1.62, 2.13, 0.97, 2.05 (mean 1.63; controls 0 of 18).
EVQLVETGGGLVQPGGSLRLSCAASGFSLNSYGISWVRQAPGKGPEWVSVIYSDGRRTFYCDSVKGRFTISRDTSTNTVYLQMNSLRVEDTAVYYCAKGQTAGTFDSWGQGTLVTVSS: 1.37, 1.55, 1.09, 1.90, 1.47, 1.67 (mean 1.51; controls 2 of 18).
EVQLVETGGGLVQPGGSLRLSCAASGFTLNEYGISWVRQAPGKGPEWVSVIYSDGRRTFYGDSVKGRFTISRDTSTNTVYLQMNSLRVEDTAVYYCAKGHAAGTFDTWGQGTLVTVSS: 0.35, 0.47, 0.39, -0.21, 0.76, 0.68 (mean 0.41; controls 0 of 18).
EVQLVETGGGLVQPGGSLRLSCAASGFSLNTYGISWVRQAPGKGPEWVSVIYSDGRRTFYADSVKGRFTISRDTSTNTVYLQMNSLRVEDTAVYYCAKGRVAGTFDSWGQGTLVTVSS: 0.37, 0.00, 0.41, -0.38, 0.18, 0.51 (mean 0.18; controls 0 of 18).
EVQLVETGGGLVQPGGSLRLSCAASGFSLNSYGISWVRQAPGKGPEWVSVIYSDGRRTFYGDNVKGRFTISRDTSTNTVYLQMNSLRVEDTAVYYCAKGQTAGTFDSWGQGTLVTVSS: 0.16, -0.28, -0.16, -0.64, -0.26, 0.65 (mean -0.09; controls 0 of 18).
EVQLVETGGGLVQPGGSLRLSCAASGFALNEYGISWVRQAPGKGPEWVSVIYSDGRRTFYGDSVKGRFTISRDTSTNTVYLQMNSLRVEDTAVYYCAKGKAAGTFDSWGQGTLVTVSS: 0.70, 0.39, 0.56, 0.41, 0.64, 0.73 (mean 0.57; controls 0 of 18).
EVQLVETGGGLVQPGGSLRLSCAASGFTLNSYGISWVRQAPGKGPEWVSVIYSDGRRTFYGDSVKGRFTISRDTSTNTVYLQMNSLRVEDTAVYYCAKGAEAGTFDSWGQGTLVTVSS: 0.63, 0.36, 0.14, 0.52, 0.79, 1.05 (mean 0.58; controls 0 of 18).
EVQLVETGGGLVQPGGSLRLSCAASGFYLNSYGISWVRQAPGKGPEWVSVIYSDGRRTFYSDSVKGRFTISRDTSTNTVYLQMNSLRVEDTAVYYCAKGEAAGTFDSWGQGTLVTVSS: 1.34, 1.05, 1.49, 1.07, 1.49, 1.36 (mean 1.30; controls 0 of 18).
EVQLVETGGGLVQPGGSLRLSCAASGFSLNSYGISWVRQAPGKGPEWVSVIYSDGRRTWYGDSVKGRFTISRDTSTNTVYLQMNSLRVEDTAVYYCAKGRTAGTFDSWGQGTLVTVSS: 0.11, 0.59, -0.27, -0.06, -0.51, 0.68 (mean 0.09; controls 1 of 18).
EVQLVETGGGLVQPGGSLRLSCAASGFTLNEYGISWVRQAPGKGPEWVSVIYSDGRRTFYGDSVKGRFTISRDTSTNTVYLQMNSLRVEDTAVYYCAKGKNAGTFDSWGQGTLVTVSS: 0.04, 1.01, -0.40, -0.34, 0.16, 0.36 (mean 0.14; controls 0 of 18).
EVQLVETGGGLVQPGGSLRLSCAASGFTLNSYGISWVRQAPGKGPEWVSVIYADGRRTFYGDSVKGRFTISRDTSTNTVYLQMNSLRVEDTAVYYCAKGHAAGTFDAWGQGTLVTVSS: 0.54, 0.17, -0.34, -0.29, 0.18, 0.86 (mean 0.19; controls 0 of 18).
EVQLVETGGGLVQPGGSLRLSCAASGFTLNSYGISWVRQAPGKGPEWVSVIYSDGRRTFYKDSVKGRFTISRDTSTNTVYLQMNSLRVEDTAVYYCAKGQTAGTFDTWGQGTLVTVSS: nd, nd, nd, nd, nd, nd (controls 0 of 18).
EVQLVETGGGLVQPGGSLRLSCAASGFTLNSYGISWVRQAPGKGPEWVSVIYSDGRRTFYGDSVKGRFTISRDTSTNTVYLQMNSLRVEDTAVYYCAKGREAGTFDKWGQGTLVTVSS: 1.23, 1.49, 1.44, 1.17, 1.21, 1.30 (mean 1.31; controls 0 of 18).
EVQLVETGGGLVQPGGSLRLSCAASGFSLNSYGISWVRQAPGKGPEWVSVIYSDGRRTFYGDSVKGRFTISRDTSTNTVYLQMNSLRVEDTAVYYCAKGEAAGTFDWWGQGTLVTVSS: 2.25, 2.25, nd, 2.01, 2.14, 3.54 (mean 2.44; controls 2 of 18).

For reference, 2 entries of the list once more:

| VH | log10 Kd, replicates | mean, log10 nM | control signals |
|---|---|---|---|
| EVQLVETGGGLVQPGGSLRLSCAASGFTLNSYGISWVRQAPGKGPEWVSVIYSDGRRTFYGDSVKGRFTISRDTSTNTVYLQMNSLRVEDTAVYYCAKGREAGTFDKWGQGTLVTVSS | 1.23, 1.49, 1.44, 1.17, 1.21, 1.30 | 1.31 | 0 of 18 |
| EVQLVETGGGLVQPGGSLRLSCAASGFSLNTYGISWVRQAPGKGPEWVSVIYSDGRRTFYADSVKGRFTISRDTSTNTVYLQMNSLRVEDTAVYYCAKGRVAGTFDSWGQGTLVTVSS | 0.37, 0.00, 0.41, -0.38, 0.18, 0.51 | 0.18 | 0 of 18 |